{"sequences": {"note": "Protein sequences, listed by entry. Tags and fused reporters are not part of them.", "UniProt O75604, whole entry": "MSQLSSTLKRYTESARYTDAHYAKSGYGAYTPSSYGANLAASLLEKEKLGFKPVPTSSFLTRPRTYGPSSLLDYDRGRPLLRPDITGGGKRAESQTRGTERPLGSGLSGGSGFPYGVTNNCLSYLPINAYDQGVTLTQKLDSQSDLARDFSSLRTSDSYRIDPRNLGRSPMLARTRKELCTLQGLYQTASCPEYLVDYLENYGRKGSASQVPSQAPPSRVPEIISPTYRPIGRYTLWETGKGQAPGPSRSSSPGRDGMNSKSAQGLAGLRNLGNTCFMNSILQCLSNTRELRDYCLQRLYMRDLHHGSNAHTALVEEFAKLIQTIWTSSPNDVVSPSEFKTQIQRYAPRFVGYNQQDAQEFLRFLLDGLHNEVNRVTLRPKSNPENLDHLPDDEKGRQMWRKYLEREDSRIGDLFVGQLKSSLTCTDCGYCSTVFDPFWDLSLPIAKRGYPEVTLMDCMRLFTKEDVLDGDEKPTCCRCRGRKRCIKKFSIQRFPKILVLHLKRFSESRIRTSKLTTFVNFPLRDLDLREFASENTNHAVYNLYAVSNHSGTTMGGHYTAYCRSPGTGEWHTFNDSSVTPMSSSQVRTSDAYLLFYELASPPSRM"}, "source": "PubChem BioAssay AID927", "about": "(National Center for Advancing Translational Sciences (NCATS), 2007)", "note": "The list shows a part of the results, in another mix than the full data. The source made the active and inactive calls. Calls come from the whole dose curve; as a rule, active = well fitted inhibition curve with a large enough effect; inconclusive = small, poorly fitted or top-dose-only effect; inactive = no such curve, though single readings can be large or run the other way.", "data": [{"molecular_target": "Ubiquitin carboxyl-terminal hydrolase 2 (Homo sapiens) (UniProt O75604)", "assay": "qHTS Assay for Inhibitors of Ubiquitin-specific Protease USP2a; note: nearly all actives have a fitted effect of over 60% in size", "settings": "USP2a enzymatic assay; at 38.3 µM (top of the series) unless noted", "description": "NIH Molecular Libraries Screening Centers Network [MLSCN]\nNIH Chemical Genomics Center [NCGC]\nPI Name: Nicholson, Ben. Progenra Inc, Malvern, PA\nHomeostasis of cellular proteins is maintained through a combination of synthesis and degradation. The pathway that accounts for the majority of protein degradation is the ubiquitin-proteasomal pathway. Ubiquitin (Ub) is highly conserved in all cells and the generation of a multi-Ub chain typically targets proteins for degradation by the proteasome. However, ubiquitination is highly reversible and dynamic. Deubiquitination, the reverse process, is catalyzed through the action of enzymes referred to as isopeptidases or deubiquitinating enzymes (DUBs). This group of enzymes is collectively responsible for maintaining adequate pools of free ubiquitin and regulating the ubiquitination status of cellular proteins. The class of DUBs referred to as the ubiquitin-specific proteases (USP) family functions endoproteolytically to cleave Ub chains from a wide range of protein substrates. USP2a deubiquitinates fatty acid synthase (FASN) which has recently been identified as an emerging oncology target. To identify inhibitors of USP2a a cell-free assay was employed.\nThe reporter enzyme chosen is phospholipase A2 (PLA2), which has an absolute requirement for a free amino terminus. Thus, fusion of a UBL to the N-terminus of PLA2 inactivates PLA2. When the UBL-PLA2 reporter enzyme is cleaved by USP2, the activated reporter can subsequently act on its substrate, which is the commercially available NBD C6-HPC (Invitrogen). Thus, this coupled assay gives a fluorescent read-out, which is generated through the cleavage of the PLA2 reporter enzyme. The assay, developed by Progenra, Inc. uses Ub-PLA2 and USP2a at near equal and low (nM) amounts and has been licensed for sale by LifeSensors, Inc. as the Ub-IsoPro1 kit.\nNCGC Assay Protocol Summary:\nThe assay buffer, prepared fresh at the day of the assay, contains 20mM Tris-HCl pH 8.0, 2mM CaCl2, 2mM beta-Mercaptoethanol, 0.1% DMSO. 3ul of 40nM (20nM final) USP2 core, which is stored on ice, is dispensed into a medium-binding black solid Kalypsys 1,536 well plate using the Kalypsys dispenser. The assay plate is then pinned with 23nL compound with the Kalypsys pintool in columns 5-48. The controls are pinned as follows: column 1&2 two-fold dilutions of 2M NEM in duplicate; column 3 DMSO; column 4 2M NEM (final concentration 38.2mM). The assay plate is incubated at RT for 30min. Subsequently, 3uL of 40nM (20nM final) Ub-PLA2 and 40uM (20uM final) NBD C6-HPC (stored on ice and protected from light) were dispensed into the plate using the Kalypsys dispenser. Plates were read immediately (0 Hour) on an Envision (Perkin Elmer) plate reader using the following wavelengths Ex 460nm /Em 535nm. Then, the assay plates were incubated for 2.5 hours and read again on the Envision using the same settings\nData were normalized to the to AC100 inhibition (NEM). Concentration-response curves were fitted to the normalized data and the concentration-response curves were then classified based on curve quality (r2), response magnitude and degree of measured activity. The time zero reading was used to flag fluorescence artifacts.\nKeywords: ubiquitination, deubiquitination, proteases, profluorescent, MLSMR, MLSCN, NIH Roadmap, qHTS, NCGC", "values": [{"smiles": "COc1ccccc1OP(C)(=O)Nc1ccc(C)cc1", "note": "(configuration not stated)", "activity change, negative = inhibition": "inactive: 6.21%"}, {"smiles": "CP(=S)(Nn1cnnc1)Oc1ccccc1", "note": "(configuration not stated)", "activity change, negative = inhibition": "inactive: 2.36%"}, {"smiles": "CP(=O)(NC(=O)Nc1ccccc1)Oc1ccccc1", "note": "(configuration not stated)", "activity change, negative = inhibition": "inactive: 4.26%"}, {"smiles": "CCOP(C)(=S)SCC(=O)NC(C)C(=O)O", "note": "(configuration not stated)", "activity change, negative = inhibition": "inactive: -2.17%"}, {"smiles": "Cc1ccc(C)c(NP(C)(=O)Oc2ccccc2)c1", "note": "(configuration not stated)", "activity change, negative = inhibition": "inactive: -1.75%"}, {"smiles": "CP(=O)(Nc1ccccc1F)Oc1ccccc1", "note": "(configuration not stated)", "activity change, negative = inhibition": "inactive: -2.73%"}, {"smiles": "CN(C)CCOC(=O)C(O)(c1ccccc1)C1CCCCC1", "note": "(configuration not stated)", "activity change, negative = inhibition": "inactive: 22.2%"}, {"smiles": "CCOP(C)(=S)SCC(=O)NC(C)(CC)C(=O)O", "note": "(configuration not stated)", "activity change, negative = inhibition": "inactive: 5.84%"}, {"smiles": "CP(=O)(Nc1ccc2c(c1)OCCO2)Oc1ccccc1", "note": "(configuration not stated)", "activity change, negative = inhibition": "inactive: 4.78%"}, {"smiles": "Cc1ccccc1NP(C)(=O)Nc1ccccc1C", "activity change, negative = inhibition": "inactive: 5.3%"}, {"smiles": "CCN(CCCl)Cc1ccccc1C", "activity change, negative = inhibition": "inactive: -5.66%"}, {"smiles": "N#[O+].[C-]#N.[C-]#N.[C-]#N.[C-]#N.[C-]#N.[Fe+2].[Na+].[Na+]", "activity change, negative = inhibition": "inactive: 2.57%"}, {"smiles": "OCCSCCO", "activity change, negative = inhibition": "inactive: -10.1%"}, {"smiles": "COc1ccccc1OP(C)(=O)Nc1c(C)n(C)n(-c2ccccc2)c1=O", "note": "(configuration not stated)", "activity change, negative = inhibition": "inactive: 7.92%"}, {"smiles": "CP(=O)(Oc1ccccc1)N1CCOC1=O", "note": "(configuration not stated)", "activity change, negative = inhibition": "inactive: 1.46%"}, {"smiles": "C/C1=C2N=C(/C=C3N=C(/C(C)=C4\\[N-][C@@](C)([C@H]5N=C1[C@@](C)(CCC(=O)NC[C@H](C)OP(=O)([O-])O[C@@H]1[C@H](O)[C@H](n6cnc7cc(C)c(C)cc76)O[C@@H]1CO)[C@@H]5CC(N)=O)[C@](C)(CC(N)=O)[C@H]4CCC(N)=O)[C@@](C)(CC(N)=O)[C@@H]\\3CCC(N)=O)C(C)(C)[C@@H]/2CCC(N)=O.[C-]#N.[Co+3]", "activity change, negative = inhibition": "inactive: -28.1% [at 17.1 µM]"}, {"smiles": "Cc1nc2ccc3ccccc3c2o1.O=[N+]([O-])c1cc([N+](=O)[O-])c(O)c([N+](=O)[O-])c1", "activity change, negative = inhibition": "inactive: -4.68%"}]}]}
